Substitutions are numbered along the chain they refer to. Names and notes keep the numbering of the source.
What was measured:
[1] = molecular target: ICAM-1-Fcγ (ICAM-1 residues of 1-480 fused to the Fc of human IgG, R&D Systems) (human) (UniProt P05362); experiment: flow cytometry on yeast-displayed I domain, ICAM-1-Fcγ 10 µg/ml
[2] = molecular target: T1, ICAM-1-Fcγ (ICAM-1 residues of 1-480 fused to the Fc of human IgG, R&D Systems) (human, UniProt P05362 28-480); experiment: SPR (Biacore 3000), I domain injected over ICAM-1-Fcγ-coupled CM5 chip, 10 mM MgCl2
T1 construct: range 1-480; Bought (R&D Systems); also called ICAM-1-Fcγ chimera; not shown: Fc of human IgG
Experimental: Mutant I domains (F265S, F292A, F292G, F265S/F292G, and HA) with residues of Asn-129 to Tyr-307 were expressed in Escherichia coli BL21 (DE3) (Novagen), refolded, and purified as described previously⁶. ICAM-1-Fcγ-coupled or mock-coupled CM5 sensor chip as control was prepared using the amine coupling kit (BIAcore, Piscataway, N.J.), as described previously³³. Surface plasmon resonance was measured using Biacore 3000. I domains were injected over the chip in 20 mM Tris HCl, pH 8.0, 150 mM NaCl, 10 mM MgCl₂, at a flow rate of 10 μl/min at room temperature.
Several of the most activating mutants were expressed in Escherichia coli and refolded in order to measure the kinetics of binding to ICAM-1 by surface plasmon resonance (FIG. 2). Data are shown in Table 2, and for comparison are shown kinetics measured for the wild-type and disulfide-bonded IA and HA mutants in a previous study⁶, and for the same disulfide-bonded HA mutant in the current study.
The values shown in the table are mean ± SD from three independent measurements. The parameters of kₒₙ, koff, and Kd were calculated by fitting the 1:1 Langmuir binding model to the Biacore sensogram. The values were from the previous studies ⁶.

Protein sequences, listed by entry. Tags and fused reporters are not part of them. Residues count along the entry.
UniProt P05362, 28-480 limits assumed: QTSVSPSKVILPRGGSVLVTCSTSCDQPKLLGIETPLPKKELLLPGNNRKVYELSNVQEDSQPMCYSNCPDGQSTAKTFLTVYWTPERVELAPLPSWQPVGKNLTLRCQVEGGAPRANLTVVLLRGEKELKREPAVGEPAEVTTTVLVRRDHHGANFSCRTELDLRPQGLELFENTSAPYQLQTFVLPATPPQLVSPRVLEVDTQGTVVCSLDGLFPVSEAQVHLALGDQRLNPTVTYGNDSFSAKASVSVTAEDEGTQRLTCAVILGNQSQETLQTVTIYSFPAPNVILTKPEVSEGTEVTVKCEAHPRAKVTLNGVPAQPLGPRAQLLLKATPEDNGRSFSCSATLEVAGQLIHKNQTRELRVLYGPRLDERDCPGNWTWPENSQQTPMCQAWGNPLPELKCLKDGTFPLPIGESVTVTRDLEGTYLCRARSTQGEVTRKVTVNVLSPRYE

[3] = molecular target: T1, ICAM-1-Fcγ (ICAM-1 residues of 1-480 …); experiment: cell-based or functional assay
[4] = molecular target: T1, ICAM-1-Fcγ (ICAM-1 residues of 1-480 …); experiment: flow cytometry on yeast-displayed I domain, ICAM-1-Fcγ 10 µg/ml
Experimental: Cells that were cultured only in SD-CAA or further induced in SG-CAA were harvested, washed with 100 μl of labeling buffer (PBS, 0.5% BSA, 10 mM MgCl₂), and then incubated with ligands at 10 μg/ml in 50 μl of the labeling buffer for 20 min with shaking at 30° C. in a 96-well V-bottom plate. Ligands used in this study were anti-c-myc antibody 9E10 (Santa Cruz Biotechnology, CA) and anti-hemagglutinin antibody 12CA5 (Roche Applied Science), αL I domain-specific antibodies TS1/22 and MEM83³², and ICAM-1-Fcγ (ICAM-1 residues of 1-480 fused to the Fc of human IgG, R&D Systems). After incubation with the primary ligands, cells were washed once in 100 μl of the labeling buffer and incubated with the fluorescence-conjugated secondary antibodies at 5 μg/ml in 50 μl of the labeling buffer for 20 min at 4° C. Finally, cells were washed once in 100 μl and suspended in 100 μl of the labeling buffer for flow cytometry (FACScan, BD Biosciences).
Good display on the yeast cell wall was shown by the binding of the anti-hemagglutinin (12CA5) and anti-c-myc (9E10) antibodies and I domain-specific antibodies TS1/22 and MEM83 (FIG. 1 and not shown). Binding was also measured of ICAM-1-Fcγ chimera (FIG. 1). Binding was undetectable to the wild-type I domain, and ICAM-1 bound 56±19% as well to the IA as to the HA I domain as measured by adjusted specific fluorescence intensity (ASFI).

B1: wild-type αL I domain (Asn-129 to Thr-318), yeast-displayed (receptor, not shown: large carriers; small tags and cut ends)
chain: NVDLVFLFDGSMSLQPDEFQKILDFMKDVMKKLSNTSYQFAAVQFSTSYKTEFDFSDYVKWKDPDALLKHVKHMLLLTNTFGAINYVATEVFREELGARPDATKVLIIITDGEATDSGNIDAAKDIIRYIIGIGKHFQTKESQETLHKFASKPASEFVKILDTFEKLKDLFTELQKKIYVIEGTSKQDLT
B1 was tested, and the ICAM-1 (% ASFI of HA) [1] was 0 % ASFI of HA.

B2: soluble high affinity αL I domain mutant HA (K287C/K294C), Asn-129 to Tyr-307 (receptor)
chain: NVDLVFLFDGSMSLQPDEFQKILDFMKDVMKKLSNTSYQFAAVQFSTSYKTEFDFSDYVKWKDPDALLKHVKHMLLLTNTFGAINYVATEVFREELGARPDATKVLIIITDGEATDSGNIDAAKDIIRYIIGIGKHFQTKESQETLHKFASKPASEFVCILDTFECLKDLFTELQKKIY
notes: also called disulfide-bonded HA mutant; HA I domain
For B2, the Kd [2] was 105 nM, the koff [2] was 0.011 s⁻¹ and the kon [2] was 105000 M⁻¹ s⁻¹. For the same binder, the “IC50 in blocking the adhesion of PMA activated lymphocytes to ICAM-1 coated surfaces” value [3] was 5300 nM.

B3: intermediate affinity αL I domain mutant (IA; L161C/F299C), yeast-displayed (receptor)
chain: B1 chain with L33C, F171C
notes: yeast surface display; disulfide-bonded mutant; also called IA I domain; not shown: Aga2, linker and hemagglutinin tag of pCTCON; c-myc tag
In the case of B3, the “binding relative to the HA I domain (ASFI)” value [4] is reported as 56%.

Reference: patent US20080311130A1 (IMMUNE DISEASE INSTITUTE, published 2008)
